High-throughput results as filed in PubChem BioAssay.
This is a sample that favours compounds with a hit; in the whole collection about 3.7% have one here.
miR-21 reporter: miR-21 reporter, rising signal. HeLa miR-21 FLuc reporter, luciferase, 48 h. Potency, µM (highest dose often 38.3 µM). 340,000 tested, under 10 active. AID 2288; active = well fitted rising curve with a large enough effect; inconclusive = small, poorly fitted or top-dose-only effect; inactive = no such curve, though single readings can be large or run the other way;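 further: miR-21 action dims this reporter so a rising signal means less miR-21 action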
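HeLa cells endogenously expressing miR-21, stably carrying CMV-driven firefly luciferase with a downstream miR-21 binding site, 2000 cells/well. Titrations up to approximately 40 uM, 48 hours; luciferase luminescence read.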
IL2 activator: activators of IL-2 | IL-2 activation reporter assay, cell-based qHTS; stimulated with anti-CD3/CD4/CD28 beads; in transgenic mouse T cells | activation, % (series mostly up to about 46 µM) | hit rate 0.065% among 360,000 | AID 652025; in the data active means activation above about 50%; inconclusive means mostly about 30% to 49%
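Readout: EGFP and DsRed signals by fluorescent plate cytometry. Unstimulated transgenic mouse T cells received compound 60 min before antibody-bead stimulation, then incubated 18 h at 37 degrees C.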
Nrf2 activator: Nrf2 pathway activation | AREc32 ARE-luciferase reporter (MCF7-derived line), luminescence, 24 h | AID 624171 | Potency, µM (series often up to 46.1 µM), usual class: activators | hit rate 0.31% among 410,000; further: nearly all actives have a fitted effect of over 65% in size
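Luciferase luminescence (Steady-Glo, 30 min at room temperature) served as the read-out of ARE activation in AREc32 cells treated with compounds for 24 hr at 37 deg C.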
Nrf2 block: blocks Nrf2 signaling; A549 ARE-Fluc reporter, luciferase luminescence, 18-24 h; Potency, µM (series often up to 46 µM), hits mostly inhibitors; hit rate 2.1% among 360,000; further: nearly all actives have a fitted effect of over 60% in size
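In this cell-based qHTS, ARE-driven firefly luciferase in A549 cells reports Nrf2 activity; the luminescent signal after BugLite lysis is the measured value, with a prior CellTiter-Fluor read for cell health.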
A549 viability: kills or reduces viability of A549 cells in Nrf2 counter-screen | A549 ARE-Fluc cells, CellTiter-Fluor viability, 18-24 h | Potency, µM (highest dose often 46 µM), actives largely listed as inhibitors | hit rate 0.16% among 390,000 | AID 504648
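A549 ARE_Fluc cells in 5% FBS OPTI-MEM were exposed to compounds in concentration-response for 18-24 h at 37 deg C. Viability was read by CellTiter-Fluor fluorescence (Ex 405/Em 525) after 30 min, before the luciferase read.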
ClpP mod: qHTS Assay for Activators of ClpP | purified B. subtilis ClpP, FRET peptide cleavage, 20 min | hit rate 1.9% among 340,000 | Potency, µM (doses to about 57.5 µM) | AID 651965, 2013; active means well fitted falling curve with a large enough effect; inconclusive means small, poorly fitted or top-dose-only effect; inactive means no such curve, though single readings can be large or run the other way; further: the source files actives as falling curves though it sought activators and does not explain the sign; nearly all actives have a fitted effect of over 65% in size
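FRET quenching reversal measured ClpP activation: 10 microg/mL B. subtilis ClpP at pH 8 with the FRET-FV decapeptide, read at 430 nm after 320 nm excitation. The 20-min minus 0-min signal was scaled between DMSO/no-enzyme wells and ADEP (5.8 microM final).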
Each line names hits and unclear results; the compound was inactive in the other large screens. Unless noted, the call rests on the fitted dose curve; in most records, active means well fitted curve in the direction sought with a large enough effect; inconclusive means small, poorly fitted or top-dose-only effect, or another doubt; inactive means no such curve, though single readings can be large; an effect the other way counts as inactive or inconclusive.

CC(=O)c1ccc(N2CCN(c3ncnc4c3nc3n4CCCC3)CC2)cc1	miR-21 reporter inconclusive, Nrf2 block 23.1µM (no result: IL2 activator)
COc1ccccc1N1CCN(c2ncnc3c2nc2n3CCCC2)CC1	Nrf2 block 20.6µM (no result: IL2 activator)
Cc1ccc(NS(=O)(=O)c2cc3c(cc2-c2ccsc2)NC(=O)CO3)cc1C	none (no result: miR-21 reporter, IL2 activator, Nrf2 activator, ClpP mod)
Cc1cc(SCC(=O)NCc2ccccc2Cl)nc(=O)[nH]1	none (no result: IL2 activator, Nrf2 block)
Cc1ccc(O)c(C(CC(=O)NCC2(c3ccccc3)CCCC2)c2ccccc2)c1 (centres undefined)	miR-21 reporter inconclusive, Nrf2 block inconclusive, A549 viability inconclusive (no result: IL2 activator)
C=C1C=C(C(F)F)n2ncc(C(=O)NCCc3ccc(Cl)cc3)c2N1	none (no result: miR-21 reporter, IL2 activator, Nrf2 activator, Nrf2 block, A549 viability)
Cc1ccc2c(=O)cc(C(=O)Nc3c(C(=O)Nc4cccc(Cl)c4)oc4ccccc34)oc2c1	none (no result: IL2 activator)
O=C(O)C(=Cc1cccc([N+](=O)[O-])c1)c1ccc(Cl)cc1	ClpP mod 25.1µM (no result: miR-21 reporter)
COC(=O)c1c(C(=O)OC)c(-c2ccc(C)cc2)n2c1CCC2	none (no result: Nrf2 block)
COC(=O)c1c(C(=O)OC)c(-c2ccc(Cl)c(Cl)c2)n2c1CCC2	Nrf2 block 18.4µM, ClpP mod inconclusive
Nc1ccc(-c2nc3c(Cl)c(N)ccc3[nH]2)cc1	Nrf2 activator inconclusive, Nrf2 block inconclusive, ClpP mod 28.2µM
CC1CCN(c2nc3c(S(=O)(=O)c4cccc(Cl)c4)nnn3c3ccsc23)CC1	Nrf2 block inconclusive, ClpP mod 22.4µM (no result: IL2 activator)
CCOc1ccc(OCC)c(NC(=O)c2nnn(Cc3cc(Br)ccc3OC)c2N)c1	ClpP mod inconclusive (no result: IL2 activator)
COc1ccc(Br)cc1Cn1nnc(C(=O)Nc2ccc(C)cc2C)c1N	Nrf2 block 16.4µM (no result: IL2 activator)
CCn1c(SCC(=O)Nc2ccc(C)cc2Br)nnc1-c1nonc1NC(C)=O	none (no result: IL2 activator)
O=C1CCCN1CCCN1CC(C(=O)N(CCO)Cc2ccccc2)CCC1=O (centres undefined)	ClpP mod 31.6µM
O=C1CCC(C(=O)N(CCO)Cc2ccccc2)CN1CCCN1CCOCC1 (centres undefined)	none
CCOc1ccccc1-n1nnnc1SCC(=O)NC(=O)Cc1ccccc1	ClpP mod 25.1µM (no result: miR-21 reporter)
CCOc1ccccc1-n1nnnc1SCC(=O)NC(=O)NCc1ccco1	Nrf2 block inconclusive
O=C(CN1C(=O)/C(=C\c2ccccc2Cl)Sc2ccccc21)NCCCN1CCOCC1	Nrf2 activator inconclusive, Nrf2 block 20.6µM, A549 viability inconclusive
CCCOc1ccc(CNC(=O)CCCn2ncn3c(cc4sc(CC)cc43)c2=O)cc1	Nrf2 block 23.1µM, A549 viability inconclusive (no result: IL2 activator)
Cc1ccc(NC(=O)CSC2=C(C#N)C(c3ccc4c(c3)OCO4)C3=C(CCCC3=O)N2)c(C)c1 (centres undefined)	Nrf2 block 11.6µM (no result: A549 viability)
CCOc1ccc(C(=O)NCC(=O)OCc2c(F)cccc2Cl)cc1OCC	none
CCOc1ccc(C(=O)NCC(=O)OCc2c(F)cccc2Cl)cc1	ClpP mod 28.2µM
CCC(C)NC(=O)c1sc2nc3n(c(=O)c2c1C)CCC3 (centres undefined)	none (no result: IL2 activator)
COc1ccc(C(=O)/C(=C\c2ccco2)N2C=CC=CC2=C(C#N)C#N)cc1	miR-21 reporter inconclusive, Nrf2 activator inconclusive, Nrf2 block inconclusive, A549 viability 18.4µM
N#CC(C#N)=C1C=CC=CN1/C(=C\c1ccco1)C(=O)c1ccccc1	miR-21 reporter inconclusive
CCc1sc(C(=O)N2CCc3ccccc32)cc1C	Nrf2 block inconclusive
CSc1sc(C(=O)N2CCc3ccccc32)cc1S(=O)(=O)C(C)C	ClpP mod 31.6µM
COc1ccc(C(=O)c2sc3nc(C)cc(-c4cccs4)c3c2N)cc1OC	IL2 activator 549.9, Nrf2 block 10.3µM
N#C/C(=C\c1ccc(C(=O)O)cc1)c1nc2sc3c(c2c(=O)[nH]1)CCCC3	IL2 activator 300.6
CCc1n[nH]c2c1C(=O)CC(C)(C)C2	ClpP mod 25.1µM (no result: Nrf2 block)
CCOc1ccccc1NC(=O)CN1C(=O)CC(c2ccc(OC)c(OC)c2)Sc2ccccc21 (centres undefined)	Nrf2 block inconclusive (no result: IL2 activator)
Cc1cc2c(s1)c1cnn(Cc3cccc(Cl)c3F)c(=O)c1n2C	none (no result: miR-21 reporter, IL2 activator, Nrf2 activator, ClpP mod)
Cc1ccc(-c2ccc(CCC(=O)O)n2CC2CCCO2)cc1 (centres undefined)	ClpP mod 25.1µM
O=C(O)CCc1ccc(-c2ccccc2)n1CC1CCCO1 (centres undefined)	ClpP mod inconclusive (no result: Nrf2 block)
COc1cccc(-n2c(=O)c3sccc3n(Cc3cc(=O)n4cc(Cl)ccc4n3)c2=O)c1	none (no result: IL2 activator)
C=CCOC(=O)Nc1snnc1C	none (no result: Nrf2 block)
Cc1nnsc1NC(=O)OCc1ccc(C(C)(C)C)cc1	Nrf2 block 10.3µM
CCOc1ccccc1CNC(=O)c1cnc2sc(N3CCC(C)CC3)nn2c1=O	none (no result: IL2 activator)
CCOC(=O)c1c(NC(=O)C(C)Sc2cn(CCNC(=O)c3ccccc3OC)c3ccccc23)sc2c1CCC2 (centres undefined)	none (no result: IL2 activator)
COc1cc(OC)c(NC(=O)Cn2cnc3sc(C)c(S(=O)(=O)N4CCC(C)CC4)c3c2=O)cc1Cl	none (no result: IL2 activator)
COc1ccc(Cl)cc1Nc1ncnc2sc(C)c(S(=O)(=O)N3CCC(C)CC3)c12	ClpP mod 31.6µM
Cc1cccc(C(=O)Oc2csc(=S)n2C(=O)c2cccc(C)c2)c1	none
O=C(Oc1csc(=S)n1C(=O)c1ccccc1)c1ccccc1	A549 viability inconclusive, ClpP mod 8.91µM
CCNC(=O)CN1C(=O)NC2(CCOc3ccccc32)C1=O (centres undefined)	none (no result: ClpP mod)
O=C(CN1C(=O)NC2(CCOc3ccccc32)C1=O)NCc1ccccc1 (centres undefined)	ClpP mod 11.2µM (no result: miR-21 reporter)
Cc1ccc(C)c(Nc2nc3c(S(=O)(=O)c4ccc(C(C)C)cc4)nnn3c3ccsc23)c1	miR-21 reporter inconclusive, Nrf2 block 16.4µM, A549 viability inconclusive, ClpP mod 35.5µM (no result: IL2 activator)
Cc1ccc(Nc2nc3c(S(=O)(=O)c4ccccc4)nnn3c3ccsc23)c(C)c1	none (no result: IL2 activator)
COc1ccccc1Nc1nc2c(S(=O)(=O)c3ccc(C(C)C)cc3)nnn2c2ccsc12	none (no result: IL2 activator)
Cc1ccc(C)c(Nc2nc3c(S(=O)(=O)c4ccc(Br)cc4)nnn3c3ccsc23)c1	miR-21 reporter inconclusive, Nrf2 block inconclusive, A549 viability inconclusive, ClpP mod 28.2µM (no result: IL2 activator)
CCC(/C=C1\Sc2ccc(OC)cc2N1CC)=C\c1sc2ccc(OC)cc2[n+]1CCCS(=O)(=O)[O-]	Nrf2 block 10.3µM, A549 viability inconclusive
CCC(/C=C1\Sc2ccc(OC)cc2N1CCO)=C\c1sc2ccc(OC)cc2[n+]1CCO	Nrf2 activator inconclusive, Nrf2 block inconclusive, A549 viability 20.6µM
